# Cyclic peptide permeability, from CycPeptMPDB

Values of Townsend et al. 2020, doi:10.26434/chemrxiv.13335941.v1, as listed in CycPeptMPDB.

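Conditions beyond the assay type are not listed; see the original paper. Other peptides of the study may be missing here. Entries at the database's floor value (log10 P of -10) are not listed.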

PAMPA measures passive passage through an artificial lipid membrane. Permeability is given as log10 of P in cm/s; higher (less negative) is more permeable.

For CC(C)C[C@@H]1C(=O)N[C@@H](Cc2ccccc2)CC(=O)N2CCC[C@@H]2C(=O)N[C@H](CC(C)C)C(=O)N[C@@H](Cc2ccccc2)C(=O)N(C)[C@H](C)C(=O)N1C the data give PAMPA -5.66 (log10 cm/s).
For CCCN1CC(=O)N[C@@H](CC(C)C)C(=O)N(C)[C@H](CC(C)C)C(=O)N2CCC[C@@H]2C(=O)N(C)[C@H](CC(C)C)C(=O)N[C@@H](Cc2ccccc2)C(=O)N2CCC[C@@H]2C1=O the data give PAMPA -5.50 (log10 cm/s).
For CCCN1CC(=O)N[C@H](CC(C)C)C(=O)N[C@@H](CC(C)C)C(=O)N2CCC[C@H]2C(=O)N(C)[C@H](CC(C)C)C(=O)N[C@@H](Cc2ccccc2)C(=O)N2CCC[C@H]2C1=O the data give PAMPA -5.79 (log10 cm/s).
For CC(C)C[C@@H]1C(=O)N(C)[C@H](CC(C)C)C(=O)N2CCC[C@H]2C(=O)N[C@H](CC(C)C)C(=O)N[C@@H](Cc2ccccc2)C(=O)N2CCC[C@H]2C(=O)N(C)[C@H](C)C(=O)N1C the data give PAMPA -5.10 (log10 cm/s).
For CC(C)C[C@@H]1NC(=O)[C@@H]2CCCN2C(=O)[C@H](CC(C)C)NC(=O)[C@H](CC(C)C)N(C)C(=O)C[C@H](Cc2ccccc2)NC(=O)[C@H]2CCCN2C(=O)[C@H](Cc2ccccc2)NC1=O the data give PAMPA -5.45 (log10 cm/s).
For CC(C)C[C@@H]1C(=O)N(Cc2ccccc2)CC(=O)N2CCC[C@@H]2C(=O)N[C@H](CC(C)C)C(=O)N[C@@H](Cc2ccccc2)C(=O)N2CCC[C@H]2C(=O)N(C)[C@H](C)C(=O)N1C the data give PAMPA -5.54 (log10 cm/s).
For CCCN1CC(=O)N[C@H](CC(C)C)C(=O)N[C@@H](Cc2ccccc2)CC(=O)N2CCC[C@H]2C(=O)N(C)[C@@H](CC(C)C)C(=O)N[C@@H](Cc2ccccc2)C(=O)N2CCC[C@H]2C1=O the data give PAMPA -5.50 (log10 cm/s).
For CC(C)C[C@@H]1NC(=O)[C@@H](C)N(C)C(=O)[C@@H]2CCCN2C(=O)[C@H](Cc2ccccc2)NC(=O)[C@H](CC(C)C)N(C)C(=O)[C@H]2CCCN2C(=O)[C@@H](CC(C)C)N(C)C1=O the data give PAMPA -5.62 (log10 cm/s).
For CC(C)C[C@@H]1NC(=O)C[C@H](Cc2ccccc2)NC(=O)[C@H]2CCCN2C(=O)[C@H](Cc2ccccc2)NC(=O)[C@H](CC(C)C)N(C)C(=O)[C@@H]2CCCN2C(=O)[C@@H](CC(C)C)N(C)C1=O the data give PAMPA -5.42 (log10 cm/s).
For CCCN1CC(=O)N[C@H](CC(C)C)C(=O)N(C)[C@@H](CC(C)C)C(=O)N2CCC[C@H]2C(=O)N(C)[C@H](CC(C)C)C(=O)N[C@@H](Cc2ccccc2)C(=O)N2CCC[C@H]2C1=O the data give PAMPA -5.53 (log10 cm/s).
For CC(C)C[C@H]1NC(=O)[C@H](CC(C)C)N(C)C(=O)[C@H](C)NC(=O)[C@H](Cc2ccccc2)NC(=O)CN(Cc2ccccc2)C(=O)[C@@H]2CCCN2C1=O the data give PAMPA -5.12 (log10 cm/s).
For CC(C)C[C@H]1NC(=O)[C@H](CC(C)C)N(C)C(=O)[C@@H](C)N(C)C(=O)[C@@H]2CCCN2C(=O)[C@H](Cc2ccccc2)NC(=O)[C@H](CC(C)C)N(C)C(=O)[C@@H]2CCCN2C1=O the data give PAMPA -5.06 (log10 cm/s).
For CC(C)C[C@@H]1C(=O)N(C)[C@@H](CC(C)C)C(=O)N2CCC[C@@H]2C(=O)N(C)[C@@H](CC(C)C)C(=O)N[C@@H](Cc2ccccc2)C(=O)N2CCC[C@@H]2C(=O)N(C)[C@@H](C)C(=O)N1C the data give PAMPA -4.96 (log10 cm/s).
For CC(C)C[C@@H]1C(=O)N[C@@H](Cc2ccccc2)C(=O)N2CCC[C@H]2C(=O)N(C)[C@H](C)C(=O)N(C)[C@@H](CC(C)C)C(=O)N(C)[C@H](CC(C)C)C(=O)N2CCC[C@@H]2C(=O)N1C the data give PAMPA -5.50 (log10 cm/s).
For CC(C)C[C@@H]1NC(=O)[C@H]2CCCN2C(=O)C[C@H](Cc2ccccc2)NC(=O)[C@@H](CC(C)C)N(C)C(=O)[C@H](C)N(C)C(=O)[C@@H]2CCCN2C(=O)[C@H](Cc2ccccc2)NC1=O the data give PAMPA -5.90 (log10 cm/s).
For CCCN1CC(=O)N(C)[C@@H](CC(C)C)C(=O)N(C)[C@H](CC(C)C)C(=O)N2CCC[C@H]2C(=O)N[C@@H](CC(C)C)C(=O)N[C@@H](Cc2ccccc2)C(=O)N2CCC[C@H]2C1=O the data give PAMPA -5.69 (log10 cm/s).
For CC(C)C[C@@H]1NC(=O)[C@H](CC(C)C)N(C)C(=O)C[C@H](Cc2ccccc2)NC(=O)[C@H]2CCCN2C(=O)[C@H](Cc2ccccc2)NC(=O)[C@@H](CC(C)C)N(C)C(=O)[C@@H]2CCCN2C1=O the data give PAMPA -5.64 (log10 cm/s).
For CC(C)C[C@@H]1NC(=O)C[C@H](Cc2ccccc2)NC(=O)[C@H](Cc2ccccc2)NC(=O)[C@@H](CC(C)C)NC(=O)[C@H]2CCCN2C(=O)[C@@H](CC(C)C)NC1=O the data give PAMPA -6.02 (log10 cm/s).
For CC(C)C[C@@H]1NC(=O)[C@@H](CC(C)C)N(C)C(=O)[C@H](C)NC(=O)[C@H](Cc2ccccc2)NC(=O)[C@@H](CC(C)C)N(C)C(=O)[C@@H]2CCCN2C1=O the data give PAMPA -4.90 (log10 cm/s).
For CC(C)C[C@H]1NC(=O)[C@H](CC(C)C)N(C)C(=O)[C@@H](C)NC(=O)[C@H](Cc2ccccc2)NC(=O)CN(Cc2ccccc2)C(=O)[C@H]2CCCN2C1=O the data give PAMPA -5.48 (log10 cm/s).
For CC(C)C[C@@H]1C(=O)N[C@@H](Cc2ccccc2)C(=O)N[C@@H](Cc2ccccc2)CC(=O)N(C)[C@@H](CC(C)C)C(=O)N(Cc2ccccc2)CC(=O)N2CCC[C@H]2C(=O)N1C the data give PAMPA -5.33 (log10 cm/s).
For CC(C)C[C@@H]1NC(=O)[C@H]2CCCN2C(=O)[C@H](CC(C)C)N(C)C(=O)[C@@H](CC(C)C)N(C)C(=O)[C@H](C)N(C)C(=O)[C@H]2CCCN2C(=O)[C@H](Cc2ccccc2)NC1=O the data give PAMPA -5.81 (log10 cm/s).
For CC(C)C[C@@H]1NC(=O)[C@@H]2CCCN2C(=O)CN(Cc2ccccc2)C(=O)[C@@H](CC(C)C)N(C)C(=O)[C@H](C)N(C)C(=O)[C@H]2CCCN2C(=O)[C@H](Cc2ccccc2)NC1=O the data give PAMPA -5.62 (log10 cm/s).

The last 3 entries again:

| compound | PAMPA (log10 cm/s) |
|---|---|
| CC(C)C[C@@H]1C(=O)N[C@@H](Cc2ccccc2)C(=O)N[C@@H](Cc2ccccc2)CC(=O)N(C)[C@@H](CC(C)C)C(=O)N(Cc2ccccc2)CC(=O)N2CCC[C@H]2C(=O)N1C | -5.33 |
| CC(C)C[C@@H]1NC(=O)[C@H]2CCCN2C(=O)[C@H](CC(C)C)N(C)C(=O)[C@@H](CC(C)C)N(C)C(=O)[C@H](C)N(C)C(=O)[C@H]2CCCN2C(=O)[C@H](Cc2ccccc2)NC1=O | -5.81 |
| CC(C)C[C@@H]1NC(=O)[C@@H]2CCCN2C(=O)CN(Cc2ccccc2)C(=O)[C@@H](CC(C)C)N(C)C(=O)[C@H](C)N(C)C(=O)[C@H]2CCCN2C(=O)[C@H](Cc2ccccc2)NC1=O | -5.62 |